Legend:
[1] = tested on: υ-adrenergic receptor
[2] = different animal models
From the text: Leonard-BE, “Noradrenaline in basic models of depression.” European-Neuropsychopharnacol. April 1997; 7 Suppl 1: S11-6; discussion S71-3.

[3] = in vivo

For `CCOc1ccccc1OC(c1ccccc1)C1CNCCO1` (stereo not drawn) [reboxetine], which “desensitization of υ-adrenergic receptor function” value [1] is on record?
Its value is “ability to desensitize”.

What about the anti-cholinergic activity [2] of the same compound?
Its anti-cholinergic activity is “only weak or no”.

And the antireserpine activity [3]?
The antireserpine activity was “potent”.
